# Experimental data taken from PubChem BioAssay (EPA / NIEHS).
# The entries are a selection whose mix differs from that of the whole data set. Activity calls are given as the source filed them. Rule for the calls: active = hit-call score of the fitted dose curve at least 0.9, where 1 is the maximum; inactive = score below 0.9.
# Assay: ATG_M_61_CIS: Attagene CIS-FACTORIAL HepG2 Assay for M61 Transcription Factor (Internal Marker) (AID 2282937)
# Settings: HepG2 Attagene CIS-FACTORIAL M61 internal marker reporter; actives raise or lower the signal
# Experimental: ATG_CIS is a cell-based, multiplexed-readout assay that uses HepG2, a human liver cell line, with measurements taken at 24 hours after chemical dosing in a 24-well plate.ATG_M_61_CIS is one of 52 assay component(s) measured or calculated from the ATG_CIS assay. It is designed to make measurements of mRNA induction, a form of inducible reporter, as detected with fluorescence intensity signals by Reverse transcription polymerase chain reaction (RT-PCR) and Capillary electrophoresis technology.Data from the assay component ATG_M_61_CIS was analyzed into 1 assay endpoint. This assay endpoint, ATG_M_61_CIS, was analyzed with bidirectional fitting relative to DMSO as the negative control and baseline of activity. Using a type of inducible reporter, measures of mRNA for gain or loss-of-signal activity can be used to understand the background control at the transcription factor-level as they relate to the gene . Furthermore, this assay endpoint can be referred to as a secondary readout, because this assay has produced multiple assay endpoints where this one serves a background control function. To generalize the intended target to other relatable targets, this assay endpoint is annotated to the background measurement intended target family, where the subfamily is internal marker.
# Human liver HepG2 cells are transiently transfected with multiple reporter transcription units (MRTUs) in 6-well plates using FuGene 6 reagent (Roche; 3 ml FuGene/1 mg DNA). The MRTU constructs are regulated by a cis-regulating element (promoter). […] A major difference between the CIS and TRANS system is that in CIS activities of endogenous TFs are measured, whereas the TRANS assay evaluates changes in activities of exogenous, chimeric NR-Gal4 proteins. […] At the end of 24 hour incubation, total RNA was isolated using TriZol reagent (Invitrogen). The isolated RNA is then reverse-transcribed using oligo(dT) primer and Mo-MLV reverse transcriptase (Invitrogen) with DNAse I (Ambion) treatment for 30 min. The one-tenth of the produced cDNA was amplified by PCR using Taq DNA polymerase (Invitrogen) and two reporter sequence-specific primers. The PCR products were fluorescently labeled by primer extension with 6-arboxyfluorescein (6-FAM) 5'-labeled reporter sequence-specific primer (2 min at 95 C, 20 s at 68 C and 10 min at 72 C) and these products were digested with 5U of HpaI (New England Biolabs) for 2h at 37 C. The fragments were purified using Qiaquick PCR columns (Qiagen), analyzed on an ABI 3130xL genetic analyzer (Applied Biosystems) with peak positions identified by using a set of X-rhodamine (ROX)-labeled MapMarker1000 molecular weight standards (BioVentures). The raw capillary electrophoresis data was processed using Attagraph software (Attagene).
row,SMILES,outcome
1,N#CSc1ccc([N+](=O)[O-])cc1[N+](=O)[O-],inactive
2,ClP(Cl)c1ccccc1,inactive
3,O=P(Cl)(Oc1ccccc1)Oc1ccccc1,inactive
4,O=[p+]1oc2ccccc2c2ccccc21 (configuration not stated),inactive
5,O=C(Cl)Oc1ccccc1,inactive
6,Cc1cc([N+](=O)[O-])cc([N+](=O)[O-])c1O,inactive
7,O=C1C2CC=CCC2C(=O)N1SC(Cl)(Cl)C(Cl)Cl (configuration not stated),inactive
8,O=[P+](Oc1ccccc1)Oc1ccccc1,inactive
9,O=[As]c1ccccc1 (configuration not stated),inactive
10,CC(C)OP(=S)(OC(C)C)SCCNS(=O)(=O)c1ccccc1,inactive
11,CN(C(=O)Cc1cccc2occc12)[C@H]1CC[C@@]2(CCCO2)C[C@@H]1N1CCCC1,inactive
12,O=[N+]([O-])c1ccc([N+](=O)[O-])cc1,inactive
13,CCCCOP(OCCCC)OCCCC,inactive
14,CC(C)CCCCCCCOP(OCCCCCCCC(C)C)Oc1ccccc1,inactive
15,CCCCO[P+](=O)OCCCC,inactive
16,O=C(Cl)OCCOC(=O)Cl,inactive
17,CCCCC(CC)CO[P+](=O)OCC(CC)CCCC (configuration not stated),inactive
